Source: US10865196B2, “Compounds for treatment of cancer” (University of Tennessee Research Foundation, priority 2008, dated 2020)

Test system: PC-3/TxR
Experiment: SRB antiproliferation assay, paclitaxel-resistant PC-3/TxR
Conditions: IC50 values in PC-3 and PC-3/TxR compared

Question: `COc1cc(C(=O)c2csc(Nc3ccc4[nH]ccc4c3)n2)cc(OC)c1OC` [compound 55, (2-(1H-indol-5-ylamino)thiazol-4-yl)(3,4,5-trimethoxyphenyl)methanone] was tested. Which “resistance factor PC-3/TxR vs PC-3” value did it give?
Answer: The value was 0.4.
